Assay results as given in article PMC4857615.

Test system: CC(=O)O
Assay: purified protein
Details: co-substrate ATP, MgCl2 6.6 mM, HEPES 84 mM, 40 °C

| Substance | Km | kcat | kcat/Km |
| --- | --- | --- | --- |
| EutP (Salmonella enterica subsp. enterica serovar Typhimurium str. LT2) | 700 ± 200 µM | 545 s⁻¹ | 778000 M⁻¹ s⁻¹ |
| EutQ (Salmonella enterica subsp. enterica serovar Typhimurium str. LT2) | 700 ± 200 µM | 318 s⁻¹ | 454000 M⁻¹ s⁻¹ |
